{"source": "ChEMBL document CHEMBL1131594", "about": "“Stereoisomers of cyclic urea HIV-1 protease inhibitors: synthesis and binding affinities” (J Med Chem, 1998)", "biological_target": "Human immunodeficiency virus type 1 protease (Human immunodeficiency virus 1, UniProt Q72874)", "assay": "Compound was tested for binding affinity against HIV-1 protease."}
{"smiles": "O=C1N(Cc2ccccc2)[C@H](Cc2ccccc2)[C@H](O)[C@H](O)[C@@H](Cc2ccccc2)N1Cc1ccccc1", "values": [{"measurement": "Ki", "result": 6, "unit": "nM"}]}
